What was measured:
hCA IX = hCA IX (Homo sapiens, UniProt Q16790); experiment: CA-catalysed CO2 hydration stopped-flow inhibition assay, hCA IX; details: for Ki: Ki (nM) hCA IX, stopped-flow CO2 hydration, mean ± standard error, three assays
hCA XII = hCA XII (Homo sapiens, UniProt O43570); experiment: CA-catalysed CO2 hydration stopped-flow inhibition assay, hCA XII

Chains of the proteins cited; added tags and fusions are not shown. Residues count along the entry.
UniProt O43570, 25-354: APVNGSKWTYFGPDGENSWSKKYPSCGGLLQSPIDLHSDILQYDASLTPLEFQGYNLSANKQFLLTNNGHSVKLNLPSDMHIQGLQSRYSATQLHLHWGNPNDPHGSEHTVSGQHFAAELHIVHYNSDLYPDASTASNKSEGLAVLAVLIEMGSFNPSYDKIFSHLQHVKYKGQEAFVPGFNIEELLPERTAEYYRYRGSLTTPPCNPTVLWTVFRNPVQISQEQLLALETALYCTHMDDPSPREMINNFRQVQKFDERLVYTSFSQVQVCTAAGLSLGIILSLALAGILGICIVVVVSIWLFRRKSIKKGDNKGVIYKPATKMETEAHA

Row | Structure (SMILES) | Ki (hCA IX) [nM] | Selectivity Ratio B = hCA II/XII (hCA XII) | Selectivity Ratio A = hCA II/IX (hCA IX)
1 | NS(=O)(=O)c1ccc(N2C(=O)c3c(Cl)c(Cl)c(Cl)c(Cl)c3C2=O)cc1 [Compound 6, 4-(4,5,6,7-tetrachloro-1,3-dioxoisoindolin-2-yl) benzenesulphonamide] | 9.7 ± 0.8 |  | 
2 | NS(=O)(=O)c1ccc(CCN2C(=O)c3c(Cl)c(Cl)c(Cl)c(Cl)c3C2=O)cc1 [Compound 8, 4-(2-(4,5,6,7-tetrachloro-1,3-dioxoisoindolin-2-yl)ethyl)benzenesulphonamide] | 53 ± 3 |  | 
3 | NS(=O)(=O)c1ccc(N2C(=O)c3c(Cl)c(Cl)c(Cl)c(Cl)c3C2=O)c(F)c1 [Compound 11, 3-fluoro-4-(4,5,6,7-tetrachloro-1,3-dioxoisoindolin-2-yl) benzenesulphonamide] |  | 0.243 | 0.039
4 | NS(=O)(=O)c1ccc(N2C(=O)c3c(Cl)c(Cl)c(Cl)c(Cl)c3C2=O)c(Cl)c1 [Compound 12, 3-chloro-4-(4,5,6,7-tetrachloro-1,3-dioxoisoindolin-2-yl)benzenesulphonamide] |  | 0.223 | 0.1
5 | NS(=O)(=O)c1ccc(N2C(=O)c3c(Cl)c(Cl)c(Cl)c(Cl)c3C2=O)c(Br)c1 [Compound 13, 3-bromo-4-(4,5,6,7-tetrachloro-1,3-dioxoisoindolin-2-yl) benzenesulphonamide] |  | 0.024 | 0.06
